The labels stand for the following.
T1: LIN28A (human?, UniProt Q9H9Z2 1-209)
T1 sequence: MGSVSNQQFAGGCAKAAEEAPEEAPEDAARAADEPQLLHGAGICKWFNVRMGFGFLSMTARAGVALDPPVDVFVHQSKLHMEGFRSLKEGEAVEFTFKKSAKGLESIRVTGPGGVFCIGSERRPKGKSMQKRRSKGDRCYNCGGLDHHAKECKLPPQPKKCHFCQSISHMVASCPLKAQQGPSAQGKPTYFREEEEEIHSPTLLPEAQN

T2: CIRBP (Homo sapiens, UniProt Q14011 1-172)
T2 sequence: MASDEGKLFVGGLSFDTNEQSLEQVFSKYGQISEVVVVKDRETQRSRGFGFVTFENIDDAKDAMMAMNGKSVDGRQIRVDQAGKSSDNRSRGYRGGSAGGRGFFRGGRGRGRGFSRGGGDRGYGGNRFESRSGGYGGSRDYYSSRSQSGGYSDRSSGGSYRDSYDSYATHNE

T3: DHX36 (Homo sapiens, UniProt Q9H2U1 1-1008)
T3 sequence: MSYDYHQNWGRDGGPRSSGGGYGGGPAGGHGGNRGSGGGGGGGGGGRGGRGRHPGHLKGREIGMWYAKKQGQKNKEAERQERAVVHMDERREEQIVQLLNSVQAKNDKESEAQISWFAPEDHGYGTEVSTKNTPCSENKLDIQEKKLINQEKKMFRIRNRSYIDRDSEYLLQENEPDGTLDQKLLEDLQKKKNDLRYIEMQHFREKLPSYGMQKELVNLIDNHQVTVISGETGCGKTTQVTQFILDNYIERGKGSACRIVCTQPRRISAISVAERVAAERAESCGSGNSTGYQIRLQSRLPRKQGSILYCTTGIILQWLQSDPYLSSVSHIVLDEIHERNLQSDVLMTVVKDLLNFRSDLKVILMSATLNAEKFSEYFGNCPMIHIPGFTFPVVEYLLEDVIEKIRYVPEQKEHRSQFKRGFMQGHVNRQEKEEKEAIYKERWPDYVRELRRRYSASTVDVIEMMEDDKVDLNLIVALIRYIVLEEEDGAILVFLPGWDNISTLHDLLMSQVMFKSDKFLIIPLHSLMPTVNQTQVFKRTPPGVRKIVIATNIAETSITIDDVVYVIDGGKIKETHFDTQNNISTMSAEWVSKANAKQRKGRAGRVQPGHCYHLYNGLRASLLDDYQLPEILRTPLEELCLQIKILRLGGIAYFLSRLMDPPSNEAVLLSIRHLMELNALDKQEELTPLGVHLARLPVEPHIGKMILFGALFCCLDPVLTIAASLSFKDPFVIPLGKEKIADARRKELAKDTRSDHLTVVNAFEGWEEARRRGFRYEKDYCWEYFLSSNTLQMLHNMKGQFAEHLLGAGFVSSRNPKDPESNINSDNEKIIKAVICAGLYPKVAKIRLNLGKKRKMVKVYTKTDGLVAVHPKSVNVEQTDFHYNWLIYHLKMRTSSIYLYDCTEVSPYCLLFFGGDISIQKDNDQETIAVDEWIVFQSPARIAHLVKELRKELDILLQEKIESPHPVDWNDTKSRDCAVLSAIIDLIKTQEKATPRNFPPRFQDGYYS

B1: hsa-mir-193b (structured_RNA)
RNA: GGGAAUCUGAGAAAGUAUUAACCAGUGCGGUGUACGAAGUUUCAGCAGAUGAGUUUAUGUUUUAUCCAACUGCUGAAGCUUCGUGCAC
B2: hsa-mir-4267 (structured_RNA)
RNA: GGGAAAAGUAGGUAGGGAUACACCAAGAGGUGUACGAAGUUUCAGCCUGGGGGAAGGCUCCAGACCCCAGCCUGCUGAAGCUUCGUGCAC
B3: hsa-mir-1264 (structured_RNA)
RNA: GGGAGAGAGCGAAGAUCACAUCGAGCAGGGUGUACGAAGUUUCAGCUUUGUUGAAAGAAUAAAUAAACCAACAAGGCUGAAGCUUCGUGCAC
B4: hsa-mir-548ad (structured_RNA)
RNA: GGGAGCUCUAGCAGCACCAAGUAGUAUAGGUGUACGAAGUUUCAGCUUUUGAAAGUAACUUGGCGAAAGCUGAAGCUUCGUGCAC
B5: hsa-mir-23b (structured_RNA)
RNA: GGGAAUGGUGUCGCAUCUGAAAAUUCACGGUGUACGAAGUUUCAGCUGAUUUGUGACUUAAGAUUAAAAUCAGCUGAAGCUUCGUGCAC
B6: hsa-mir-585 (structured_RNA)
RNA: GGGAAUAUAAGACUGGUGAGUCGCCACUGGUGUACGAAGUUUCAGCCCCAGAGAAAGCCUGAACGUUGGGGCUGAAGCUUCGUGCAC
B7: hsa-mir-181d (structured_RNA)
RNA: GGGAGAGAAAAGCGACGAUCAUUCGCGCGGUGUACGAAGUUUCAGCGUGGGUUGUGAGGACUGAGGCCAGACCCACGCUGAAGCUUCGUGCAC
B8: hsa-mir-376b (structured_RNA)
RNA: GGGACAAGGUUGCGUGGCAGAACGAAAUGGUGUACGAAGUUUCAGCGUUUACGUGAUUCCUGGUUAAUCGCUGAAGCUUCGUGCAC
B9: hsa-mir-3682 (structured_RNA)
RNA: GGGAACAUGUGGCGACGGUUAUACGCCCGGUGUACGAAGUUUCAGCAUCAUAAUAAAGGUGUCAUGAUGCUGAAGCUUCGUGCAC
B10: hsa-mir-7150 (structured_RNA)
RNA: GGGACAGUAACCAAGCCCUGUAUGGCCGGGUGUACGAAGUUUCAGCGGUAAGGUCUUUCAGCCGCUGAAGCUUCGUGCAC
B11: hsa-mir-4659b (structured_RNA)
RNA: GGGAACGACGGGUAGUGUAUAUAUGAUCGGUGUACGAAGUUUCAGCAGAAAAUUUUUCUCCAAAGUUUUCUGCUGAAGCUUCGUGCAC
B12: hsa-mir-489 (structured_RNA)
RNA: GGGAGGCAGAAUCACAACGAGUUCUUACGGUGUACGAAGUUUCAGCCCAUUUACUUGAACCUUUAGGAGUGAGCUGAAGCUUCGUGCAC
B13: PARIS_ID4 (structured_RNA)
RNA: GGGAGACCGCUGAAGACGUAUUGUGAACGGUGUACGAAGUUUCAGCAGUGAUGGCUUUGAGGUUAUUUGCAGUUUCCUAGCCAUCUCAAAGUGUGCUGCGGGGAUCUCUGCUGAAGCUUCGUGCAC
B14: hsa-mir-6879 (structured_RNA)
RNA: GGGACGGAACUUGUGCCACGCGAUUUCUGGUGUACGAAGUUUCAGCGGGAGAGGGGCCCAGCUGACCCUCCUGUCGCUGAAGCUUCGUGCAC
B15: hsa-mir-580 (structured_RNA)
RNA: GGGAUAACCUAUUGUCGGCUUUGCACCAGGUGUACGAAGUUUCAGCUCAGAUAUUUAAGUUAACAGUAUUUGAGCUGAAGCUUCGUGCAC
B16: hsa-mir-145 (structured_RNA)
RNA: GGGAGACCACGGUAGGCCCGUAUAACACGGUGUACGAAGUUUCAGCAUCCCUUAGAUGCUAAGAUGGGGAUGCUGAAGCUUCGUGCAC
B17: hsa-mir-5189 (structured_RNA)
RNA: GGGAAGUUAUGUGAAUCGAUGAAAACGUGGUGUACGAAGUUUCAGCGACAGGCUGGCCUCUGGAUGACCUGCGCUGAAGCUUCGUGCAC
B18: hsa-mir-1-1 (structured_RNA)
RNA: GGGAAACCGAGGAUGGACUGCAUGUCUCGGUGUACGAAGUUUCAGCCCCAUAUGGACCUGCUAAGCUAUGGAGCUGAAGCUUCGUGCAC
B19: hsa-mir-411 (structured_RNA)
RNA: GGGACAGUAUCAUCACGCACUUCGGCCGGGUGUACGAAGUUUCAGCCGUACGCUUUAUCUGUGACGUAUGGCUGAAGCUUCGUGCAC
B20: hsa-mir-518b_518c (structured_RNA)
RNA: GGGAGCCAUAUCUUACUGUGUACUGCGGGGUGUACGAAGUUUCAGCUCUGUUGUCUGAAAGAAAACAGCUGAAGCUUCGUGCAC
B21: hsa-mir-3927 (structured_RNA)
RNA: GGGAGAUAUAAGGAGGGUAUAACCGUCUGGUGUACGAAGUUUCAGCCCUGUCCUAUGACAAACAUGGCAGGGCUGAAGCUUCGUGCAC
B22: hsa-mir-760 (structured_RNA)
RNA: GGGAACCUAUGAGAAUAGCCCUCCUGAGGGUGUACGAAGUUUCAGCCCCGGAUACCUCAGAAAUUCGGGCUGAAGCUUCGUGCAC
B23: hsa-mir-6131 (structured_RNA)
RNA: GGGACAGUCCUGCAGGUUAAACUAUCGCGGUGUACGAAGUUUCAGCGGUCAGGUGGUGCCCUCCUUCCAUGGGUAGAGCCAGAGAUGGUGGGUUCUGGCUGCUGAAGCUUCGUGCAC
B24: hsa-mir-6785 (structured_RNA)
RNA: GGGAAAGAUAUUACAGCGAACACGUACGGGUGUACGAAGUUUCAGCUGGUGGGAGAGGAGCCCCACUGUGGAAGUCUGACCCCCACAGCUGAAGCUUCGUGCAC
B25: hsa-mir-20a (structured_RNA)
RNA: GGGAAAUGGAUGGCCGUACGCAUAUUCGGGUGUACGAAGUUUCAGCAGGUAGUGUUUAGUUAUCUACUGCUGAAGCUUCGUGCAC

This is one part of the list.

The first assay has as its target T1, LIN28A. Put plainly: FOREST: bead pull-down of RNA structure library v1, barcode microarray; U1A/LIN28A: 20 mM HEPES pH 7.5, 80 mM KCl, 20 mM NaCl, 10% glycerol, 2 mM DTT, 0.1 ug/uL BSA, 4 C; BG4/CIRBP/DHX36: 10 mM Tris-HCl pH 7.5, 100 mM KCl (or LiCl),; high values mean tight binding.
B1 had a binding signal of 1.46 z-score.

The molecule B2 yielded a binding signal of 1.34 z-score.

In the case of B3, the binding signal was 1.53 z-score.

In turn, B4 returned a binding signal of 1.35 z-score.

As for B5, the binding signal stood at 1.49 z-score.

Regarding B6, the binding signal stood at 1.33 z-score.

B7 yielded a binding signal of 1.48 z-score.

As for B8, the binding signal was found to be 1.5 z-score.

Take B9: the binding signal amounted to 1.42 z-score.

Turning to B10, the binding signal is 1.41 z-score.

On to B11, for which the binding signal was 1.4 z-score.

As to B12, the binding signal was 1.45 z-score.

Consider B13, for which the binding signal was found to be 1.42 z-score.

As for B14, the binding signal is 1.54 z-score.

Take B15: the binding signal came out at 1.41 z-score.

In the case of B16, the binding signal worked out at 1.35 z-score.

B17: the binding signal was 1.41 z-score.

With B18, the binding signal turned out to be 1.48 z-score.

With B19, the binding signal was 1.42 z-score.

For the molecule B20, the binding signal turned out to be 1.45 z-score.

In the case of B21, the binding signal is 1.33 z-score.

With B22, the binding signal was 1.47 z-score.

Molecule B23 showed a binding signal of 1.42 z-score.

In turn, B24 yielded a binding signal of 1.35 z-score.

Consider B25, for which the binding signal was determined as 1.43 z-score.

The target of the next assay is T2, CIRBP. Described as above.
B1 had a binding signal of 0.242 z-score.

As for B2, the binding signal is 0.422 z-score.

In turn, B3 had a binding signal of 1.3 z-score.

The molecule B4 came in with a binding signal of 0.0801 z-score.

The molecule B5 showed a binding signal of -0.358 z-score.

B6: the binding signal was found to be 1 z-score.

As for B7, the binding signal worked out at 1.06 z-score.

B8 returned a binding signal of 0.35 z-score.

B9 displayed a binding signal of -0.497 z-score.

B10 came in with a binding signal of 0.292 z-score.

Take B11: the binding signal came out at 0.716 z-score.

With B12, the binding signal stood at 0.914 z-score.

Take B13: the binding signal was found to be 0.399 z-score.

Regarding B14, the binding signal is -0.558 z-score.

As for B15, the binding signal stood at 1.02 z-score.

With B16, the binding signal was found to be 0.578 z-score.

As for B17, the binding signal worked out at 3.72 z-score.

As for B18, the binding signal was 2.3 z-score.

The molecule B19 yielded a binding signal of 0.443 z-score.

For B20, the binding signal worked out at 1.41 z-score.

B21 showed a binding signal of 1.16 z-score.

Molecule B22 yielded a binding signal of 3.62 z-score.

For the molecule B23, the binding signal was -0.4 z-score.

B24 came in with a binding signal of 2.03 z-score.

B25 came in with a binding signal of 0.385 z-score.

Another assay has as its target T3, DHX36. The assay is described as above.
Consider B1, for which the binding signal is -0.154 z-score.

As for B2, the binding signal stood at 0.266 z-score.

In turn, B3 came in with a binding signal of 0.504 z-score.

As to B4, the binding signal was -0.51 z-score.

Take B5: the binding signal was -0.323 z-score.

For the molecule B6, the binding signal was -0.00929 z-score.

In turn, B7 gave a binding signal of 1.3 z-score.

Take B8: the binding signal is -0.743 z-score.

Turning to B9, the binding signal was -0.423 z-score.

The molecule B10 showed a binding signal of -0.396 z-score.

With B11, the binding signal stood at 1.21 z-score.

On to B12, for which the binding signal was determined as 0.124 z-score.

B13 had a binding signal of 1.04 z-score.

In turn, B14 had a binding signal of -0.178 z-score.

On to B15, for which the binding signal was determined as 0.858 z-score.

In turn, B16 came in with a binding signal of 0.501 z-score.

For B17, the binding signal stood at 1.2 z-score.

Regarding B18, the binding signal came out at 0.315 z-score.

Molecule B19 registered a binding signal of 0.233 z-score.

Consider B20, for which the binding signal amounted to 0.951 z-score.

In turn, B21 yielded a binding signal of 0.266 z-score.

In turn, B22 showed a binding signal of 1.18 z-score.

For B23, the binding signal worked out at 0.204 z-score.

Molecule B24 yielded a binding signal of 0.942 z-score.

In turn, B25 gave a binding signal of 2.02 z-score.

Source of the values: publication PMC7723054.
